Biological target: T1, B1 receptors (Oryctolagus cuniculus, UniProt P48748)
T1 construct: The thorax was opened and the thoracic aorta carefully removed; from tissue; host or cells: rabbit thoracic aorta spiral strips
T1 sequence (P48748 1-352): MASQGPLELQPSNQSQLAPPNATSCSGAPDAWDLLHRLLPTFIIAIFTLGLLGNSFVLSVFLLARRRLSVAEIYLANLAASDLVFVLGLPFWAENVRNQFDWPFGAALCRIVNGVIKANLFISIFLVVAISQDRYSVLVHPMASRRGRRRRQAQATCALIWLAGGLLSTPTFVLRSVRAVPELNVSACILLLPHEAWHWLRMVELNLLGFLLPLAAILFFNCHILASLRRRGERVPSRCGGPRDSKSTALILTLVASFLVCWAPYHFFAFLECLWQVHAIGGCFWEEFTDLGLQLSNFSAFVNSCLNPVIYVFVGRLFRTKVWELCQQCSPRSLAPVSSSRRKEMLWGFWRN
Assay: B1 receptor bioassay, rabbit aorta strips contracted with des-Arg9-BK
Assay type: cell-based
Conditions: 50% reduction of sustained contraction to 10^-7 M des-Arg9-BK; read-out: Rabbit Aorta p IC50 B1 receptors (converted)
Procedure: Male New Zealand white rabbits, weight range 2-3 kg, were killed by an overdose of pentobarbital i.v. The thorax was opened and the thoracic aorta carefully removed. […] The tissues were placed under 1 gm isometric tension and allowed to equilibrate for 1H. At time 1h, a concentration-effect curve was constructed to the selective B1 agonist des-Arg^9 -BK. This was repeated at time 3 hours. […] Once the contraction was sustained, the compound to be assayed was applied to the tissue bath in a cumulative manner. The concentration of the compound which produced a 50% reduction of the sustained contraction was calculated. The negative logarithm of this concentration was calculated and expressed as the […].

In the case of `CC(C)C[C@H](NC(=O)[C@@H]1CCCN1C(=O)[C@H](CO)NC(=O)[C@H](Cc1ccccc1)NC(=O)CNC(=O)[C@@H]1CCCN1C(=O)[C@@H]1CCCN1C(=O)[C@H](CCCN=C(N)N)NC(=O)[C@@H](N)CCCCN)C(=O)O` [des-Arg^10 -Leu^9 -kallidin, reference compound], the IC50 is reported as 12.6 nM.

Source: patent US5648336A (University of Colorado, priority 1994, dated 1997)
